Test results as given in PubChem BioAssay AID720582 (The Scripps Research Institute Molecular Screening Center, 2013).
This is a selection; strong and weak results do not stand in their true shares. Calls of active or inactive are those of the source.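 The calls were made as follows: active = inhibition above a per-campaign cutoff equal to the mean of compounds falling between control-based bounds plus 3 SD (cut at about 20% in these data); inactive = the rest.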

The chains behind the UniProt entries cited, without tags or fusion partners. Where a name states a change or a piece, a line headed by the entry shows the natural chain unless it says otherwise.
UniProt O14672: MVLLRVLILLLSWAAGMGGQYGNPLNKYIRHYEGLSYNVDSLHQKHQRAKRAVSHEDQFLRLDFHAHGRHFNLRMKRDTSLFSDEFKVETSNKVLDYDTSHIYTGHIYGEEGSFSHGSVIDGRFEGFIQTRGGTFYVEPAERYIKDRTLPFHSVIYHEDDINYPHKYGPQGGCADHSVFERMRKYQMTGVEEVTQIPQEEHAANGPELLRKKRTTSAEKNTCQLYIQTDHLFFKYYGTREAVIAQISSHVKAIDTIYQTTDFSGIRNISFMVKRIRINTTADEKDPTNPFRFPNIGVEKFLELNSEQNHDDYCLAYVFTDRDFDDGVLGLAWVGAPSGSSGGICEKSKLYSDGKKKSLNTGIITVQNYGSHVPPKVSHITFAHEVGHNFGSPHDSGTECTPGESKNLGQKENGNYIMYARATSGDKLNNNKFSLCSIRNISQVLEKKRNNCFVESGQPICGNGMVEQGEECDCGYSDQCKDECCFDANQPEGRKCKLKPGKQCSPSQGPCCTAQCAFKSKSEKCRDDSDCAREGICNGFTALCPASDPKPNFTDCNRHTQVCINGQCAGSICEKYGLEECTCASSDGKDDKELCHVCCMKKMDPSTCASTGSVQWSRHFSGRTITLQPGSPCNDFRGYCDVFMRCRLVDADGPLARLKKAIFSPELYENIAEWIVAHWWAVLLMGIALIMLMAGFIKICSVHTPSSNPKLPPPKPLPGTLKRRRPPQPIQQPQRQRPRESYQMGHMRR

The molecules below were run against Disintegrin and metalloproteinase domain-containing protein 10 (Homo sapiens) (UniProt O14672) (assay: blockers of ADAM10 peptide cleavage – biochemical, QFRET, HTS, primary screen (AID 720582;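 also: 0% = DMSO wells while the 100% control is not disclosed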)). Settings: recombinant ADAM10, EDANS/DABCYL FRET peptide cleavage, 3 h; at 7 µM; hits give high values.

SMILES	inhibition
CN(C)C1(CNC(=O)c2ccc(Cl)c(S(N)(=O)=O)c2)CCCCC1	inactive: 3.36%
COc1ccc(N)c([N+](=O)[O-])c1[N+](=O)[O-]	inactive: -13.3%
Nc1ccc(CCCCOc2ccccc2)cc1	inactive: -5.15%
O=C(OC1CN2CCC1CC2)c1cccc(Cl)c1 (centres undefined)	inactive: 12.8%
C/C(N)=N\P(=O)(OCc1ccccc1)OCc1ccccc1	inactive: 4.97%
C(Cc1nn[nH]n1)Cc1nn[nH]n1	inactive: 5.08%
Nc1ccc([As](=O)(O)c2ccc([N+](=O)[O-])cc2)cc1	inactive: -0.94%
O=[As](O)(c1ccccc1)c1ccc(O)cc1	inactive: 8.57%
O=[N+]([O-])c1ncn(CCn2cnc([N+](=O)[O-])n2)n1	inactive: -5.27%
CC(=O)NC(SC(=S)N(C)C)C(Cl)(Cl)Cl (centres undefined)	inactive: -3.59%
c1nnnn1CCn1cnnn1	inactive: 2.32%
CC(C)C(=O)NC(Sc1ccccc1)C(Cl)(Cl)Cl (centres undefined)	inactive: -8.1%
O=P(Nc1nccs1)(c1ccccc1)c1ccccc1	inactive: 3.49%
CC(C)(C)C(=O)NC(Sc1ccccc1)C(Cl)(Cl)Cl (centres undefined)	inactive: 1.93%
CCc1cc(O)c([N+](=O)[O-])c(C)c1[N+](=O)[O-]	inactive: -9.87%
O=P1(Nc2nc3ccc(Cl)cc3s2)COc2ccccc2O1 (centres undefined)	inactive: -7.08%
CCOc1ccc(C2=NCC(CBr)S2)cc1 (centres undefined)	inactive: 6.34%
CC(=O)Nc1ccc([As](=O)(O)O)c(O)c1	inactive: -8.34%
CC(=O)Nc1ccc(Oc2c([N+](=O)[O-])cc([N+](=O)[O-])cc2[N+](=O)[O-])cc1	inactive: -9.65%
Cc1ccccc1CN(C)C(=O)COC(=O)C(O)(c1ccccc1)c1ccccc1	inactive: -5.96%
C[C@H]1OP(=O)(Oc2ccccc2)C[C@@H]2O[C@@H]21 (some centres undefined)	inactive: 6.77%

SMILES	inhibition
C[C@@H]1C=CCP(=O)(Oc2ccccc2)O1 (some centres undefined)	inactive: 3.31%
CC(=O)c1ccc(N2CC2c2ccncc2)cc1 (centres undefined)	inactive: 0.76%
N#C/C(=C\c1ccc(N(CCBr)CCBr)cc1)C(N)=O	inactive: -0.36%
COC(=O)C1(C)COP(=O)(NCc2ccccc2)OC1 (centres undefined)	inactive: -2.73%
O=P1(N(CCCl)CCCl)OCCC2CCCCN21 (centres undefined)	inactive: -3.12%
c1ccc(-c2nn[nH]n2)c(-c2nn[nH]n2)c1	inactive: -10.2%
Cc1ccc(NP(=O)(Oc2cccc(C)c2)Oc2cccc(C)c2)nc1	inactive: 1.51%
CCNC(=S)/N=C(\N)N[N+](=O)[O-]	inactive: -0.92%
O=C(NC1CCS(=O)(=O)C1)NP(=S)(Oc1ccccc1)Oc1ccccc1 (centres undefined)	inactive: 6.41%
CC(NC(=O)COC(=O)C(O)(c1ccccc1)c1ccccc1)c1ccccc1 (centres undefined)	inactive: -5.05%
Cc1ccccc1OP(=O)(Nc1ccccn1)Oc1ccccc1C	inactive: -17.5%
O=c1c2cc([N+](=O)[O-])ccc2[nH]c2c([N+](=O)[O-])cc([N+](=O)[O-])cc12	inactive: 1.15%
CN(C)C(=O)Oc1noc2ccccc12	inactive: 0.68%
O=C(OC1CN2CCC1CC2)c1ccccc1 (centres undefined)	inactive: -2.58%
CCC(=O)N1C2C3N(C(=O)CC)C1C1N(C(=O)CC)C(C(N1C(=O)CC)N3C(=O)CC)N2C(=O)CC	inactive: -9.39%
COC(=O)c1cc2c(s1)N=C(c1ccccc1)N(C)P2(=O)N1CCOCC1 (centres undefined)	inactive: 2.71%
Cc1ccc(OP(=O)(Nc2ccccn2)Oc2ccc(C)cc2)cc1	inactive: -1.63%
CC(=O)NC(SC(=S)N(CC(C)C)CC(C)C)C(Cl)(Cl)Cl (centres undefined)	inactive: -4.54%
CCn1c(=O)n(C2CCN(CC3CCCCCCC3)C[C@H]2CO)c2ccccc21 (some centres undefined)	inactive: -0.9%
Cc1cc(SC(NC(=O)c2ccc(F)cc2)C(Cl)(Cl)Cl)ncn1 (centres undefined)	inactive: -3.02%
CCOP(=O)(Nc1ccccc1)OCC	inactive: 0.91%

SMILES	inhibition
Cc1ccc(NP(=O)(Oc2ccccc2F)Oc2ccccc2F)nc1	inactive: -0.05%
CN(C(=O)Cc1ccc(Cl)c(Cl)c1)[C@H]1CCCC[C@@H]1N1CCCC1	inactive: -5.98%
O=P(Nc1nc2ccc(Cl)cc2s1)(c1ccccc1)c1ccccc1	inactive: 9.31%
CN(C)P(=O)(N(C)C)n1c(Nc2ccccc2)nnc1-c1ccccc1	inactive: 3.26%
CC(=O)Nc1ccc([As](=O)(O)O)cc1	inactive: 11.7%
O=C(O)c1ccccc1[As](=O)(O)O	inactive: -0.53%
CCCC1OP(N)(=O)OCC1CC (centres undefined)	inactive: 3.56%
Nc1cccc2ccc([As](=O)(O)O)cc12	inactive: -327%
CN(C(=O)Cc1ccccc1)C1CC[C@@]2(CCCO2)C[C@@H]1N1CCCC1 (some centres undefined)	inactive: -16.2%
CCN(N=Nc1nonc1N)c1nonc1N	inactive: 8.15%
CN1CCCC(OC(=O)C(c2ccccc2)c2ccccc2)C1 (centres undefined)	inactive: -1.54%
Clc1ccc(Cl)c(NC2=NCC(CBr)S2)c1 (centres undefined)	inactive: -0.72%
COc1ccccc1OP(=O)(Nc1ccc(C)cn1)Oc1ccccc1OC	inactive: -1.59%
Cc1ccc(OP(=O)(Nc2nccs2)Oc2ccc(C)cc2)cc1	inactive: 1.15%
CN(C(=O)Cc1ccc(Cl)c(Cl)c1)[C@H]1CCCC[C@H]1N1CCCC1	inactive: 7.85%
Cc1ccc(N/C(=N/P(=O)(N2CCOCC2)N2CCOCC2)N2CCOCC2)cc1	inactive: 1.08%
NC(=O)c1cc([N+](=O)[O-])cc([N+](=O)[O-])c1N	inactive: 3.75%
Oc1ccccc1CNc1ccccn1	inactive: -5.1%
O=C(NC(Sc1ccncn1)C(Cl)(Cl)Cl)c1ccccc1 (centres undefined)	inactive: -5.99%
Nc1cc(N)c2nonc2c1[N+](=O)[O-]	inactive: -3.22%
CC(C)CC(=O)NC(Sc1ccc(Cl)cc1)C(Cl)(Cl)Cl (centres undefined)	inactive: 5.02%

SMILES	inhibition
Cc1ccc(NP(=O)(Oc2ccccc2)Oc2ccccc2)nc1	inactive: -33%
CCc1nc2c(n1)c1c(non1O)c1c2no[n+]1[O-]	inactive: 1.45%
O=[N+]([O-])c1cc([N+](=O)[O-])c(CCNc2ccccc2)c([N+](=O)[O-])c1	inactive: 13.5%
O=[N+]([O-])c1cccc2n[nH]nc12	inactive: 2.06%
CC(=O)N1C2C3N(C(C)=O)C1C1N(C(C)=O)C(C(N1C(C)=O)N3C(C)=O)N2C(C)=O	inactive: 8.01%
COc1ccc(C2=NCC(CBr)S2)cc1 (centres undefined)	inactive: -7.42%
CC1CCN(C(=O)Oc2c(Cl)cc(Cl)c3cccnc23)CC1	inactive: 4.07%
c1cc(-c2nn[nH]n2)ccc1-c1nn[nH]n1	inactive: -13.7%
CC(C)c1nc(Nc2ccccc2)n(P(=O)(N(C)C)N(C)C)n1	inactive: 2.2%
CC(C)=N/N=C(\N)N[N+](=O)[O-]	inactive: -0.06%
CN(C)C(=O)OCCc1n(C)cc[n+]1C	inactive: -0.03%
CCN(/C(=N/P(=O)(N1CCOCC1)N1CCOCC1)N1CCOCC1)c1ccc(OC)cc1	inactive: 1.66%
Nc1ccc([As](=O)(O)c2ccc(N)cc2)cc1	inactive: -6.53%
C[N+]1=C2C=CC=CC=C2SC12C([N+](=O)[O-])=CC([N+](=O)[O-])=C[C-]2[N+](=O)[O-] (centres undefined)	inactive: 5.07%
O=C(Nc1cc([As](=O)(O)O)ccc1O)c1ccccc1	inactive: 5.77%
O=P1(N(CCCl)CCCl)OCCCS1 (centres undefined)	inactive: -15.6%
O=C(O)CNc1ccc([As](=O)(O)O)cc1	inactive: 5.39%
COC(=O)C1(C)COP(=O)(Nc2ccccc2)OC1 (centres undefined)	inactive: -10.1%
O=[N+]([O-])c1cccc(NC2=NCC(CBr)S2)c1 (centres undefined)	inactive: 6.77%
O=[N+]([O-])c1ncn(CCn2ncnc2[N+](=O)[O-])n1	inactive: -5.73%
CC(C)(C)C(=O)NC(Sc1ccncn1)C(Cl)(Cl)Cl (centres undefined)	inactive: 4.16%
